# Values of other authors as cited in paper PMC3400110 (Journal of Medicinal Chemistry, 2009).
# By UniProt entry, the sequences of proteins in these tests, tags left out.
# UniProt P08183, whole entry: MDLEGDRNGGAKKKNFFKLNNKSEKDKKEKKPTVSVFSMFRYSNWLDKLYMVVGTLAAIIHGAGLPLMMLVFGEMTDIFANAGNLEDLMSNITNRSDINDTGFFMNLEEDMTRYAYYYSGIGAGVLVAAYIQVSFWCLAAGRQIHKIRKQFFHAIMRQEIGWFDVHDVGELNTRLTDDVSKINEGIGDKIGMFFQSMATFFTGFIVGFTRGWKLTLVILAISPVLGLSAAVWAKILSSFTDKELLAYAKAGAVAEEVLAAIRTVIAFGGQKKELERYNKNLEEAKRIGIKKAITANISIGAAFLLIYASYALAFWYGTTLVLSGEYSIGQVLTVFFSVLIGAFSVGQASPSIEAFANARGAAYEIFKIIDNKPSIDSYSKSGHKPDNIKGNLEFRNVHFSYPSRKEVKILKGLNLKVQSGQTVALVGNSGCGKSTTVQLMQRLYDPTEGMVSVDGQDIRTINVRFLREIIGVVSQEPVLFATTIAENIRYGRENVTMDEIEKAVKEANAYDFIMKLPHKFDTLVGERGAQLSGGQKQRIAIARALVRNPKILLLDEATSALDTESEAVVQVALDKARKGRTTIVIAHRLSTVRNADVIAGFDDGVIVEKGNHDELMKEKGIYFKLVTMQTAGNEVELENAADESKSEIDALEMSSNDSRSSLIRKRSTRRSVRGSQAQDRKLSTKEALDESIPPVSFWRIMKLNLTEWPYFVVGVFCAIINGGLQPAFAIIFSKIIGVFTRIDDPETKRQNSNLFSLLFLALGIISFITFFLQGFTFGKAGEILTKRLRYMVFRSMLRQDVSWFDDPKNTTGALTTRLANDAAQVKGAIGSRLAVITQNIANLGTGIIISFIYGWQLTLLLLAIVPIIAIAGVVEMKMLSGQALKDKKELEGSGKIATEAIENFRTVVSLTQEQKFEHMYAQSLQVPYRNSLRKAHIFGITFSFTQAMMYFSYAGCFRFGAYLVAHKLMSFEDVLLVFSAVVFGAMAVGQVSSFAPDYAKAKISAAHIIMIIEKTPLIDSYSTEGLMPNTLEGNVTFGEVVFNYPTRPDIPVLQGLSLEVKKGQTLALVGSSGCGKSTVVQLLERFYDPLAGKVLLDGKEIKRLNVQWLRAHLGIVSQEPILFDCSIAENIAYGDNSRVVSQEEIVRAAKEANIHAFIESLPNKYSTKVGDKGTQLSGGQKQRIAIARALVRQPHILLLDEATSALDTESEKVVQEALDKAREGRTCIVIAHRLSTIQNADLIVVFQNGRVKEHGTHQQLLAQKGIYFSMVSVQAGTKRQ
# Target: human P-gp (Homo sapiens, UniProt P08183)
# Settings: cited from earlier work
compound,measurement,value
O[C@@H](COc1cccc2ncccc12)CN1CCN([C@@H]2c3ccccc3[C@@H]3[C@H](c4ccccc42)C3(Cl)Cl)CC1 [Compound 42],IC50,6.5 ± 1.1 nM
